Experimental data: paper PMC11956017, “Design of Benzyl-triazolopyrimidine-Based NADPH Oxidase Inhibitors Leads to the Discovery of a Potent Dual Covalent NOX2/MAOB Inhibitor” (Journal of Medicinal Chemistry, 2025)

By UniProt entry, the sequences of proteins in these tests, tags left out.
UniProt P27338, whole entry: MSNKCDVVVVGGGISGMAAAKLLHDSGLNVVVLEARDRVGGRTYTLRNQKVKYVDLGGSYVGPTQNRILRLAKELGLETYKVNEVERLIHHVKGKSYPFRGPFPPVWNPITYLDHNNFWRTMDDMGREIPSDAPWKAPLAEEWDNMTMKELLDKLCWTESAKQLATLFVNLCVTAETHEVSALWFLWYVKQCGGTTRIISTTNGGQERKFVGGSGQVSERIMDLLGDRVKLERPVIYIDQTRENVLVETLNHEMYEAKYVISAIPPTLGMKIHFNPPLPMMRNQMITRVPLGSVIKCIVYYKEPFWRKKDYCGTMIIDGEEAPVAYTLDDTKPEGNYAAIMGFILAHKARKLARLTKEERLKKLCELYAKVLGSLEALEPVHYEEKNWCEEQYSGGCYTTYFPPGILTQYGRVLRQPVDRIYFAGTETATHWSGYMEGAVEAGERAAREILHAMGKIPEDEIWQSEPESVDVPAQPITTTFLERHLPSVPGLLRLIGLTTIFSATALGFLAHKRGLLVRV

Legend:
human NOX2 = assay: Human NOX2 isolated membranes, MCLA assay; type: biochemical; conditions: from membrane IC50 values
Method: IC50 determinations were performed as described, with the same aforementioned modifications for covalent inhibition. Briefly, 20 μg of NOX2-p22^phox membranes was added to a reaction mix with a 65 mM sodium phosphate buffer (pH 7.0), 0.5 μM FAD, 130 μM LiDS, 160 nM p67^phox, p47^phox, Rac1 Q61L, and 1 μM MCLA or 200 μM bovine cytochrome c. The estimated final protein concentration based on the heme’s absorbance was 60 nM. Compounds were incubated for 1 h at 25 °C, at varying concentrations. The reaction started by adding 240 μM NADPH, and measurements were taken by using a GloMax plate reader (Promega; MCLA) or a Cary 100 UV–vis spectrophotometer (Varian; cytochrome c).

human MAOB = molecular target: T1, human MAOB (Homo sapiens, UniProt P27338); assay: Purified MAOB, Amplex Red/horseradish peroxidase coupled assay; type: biochemical; conditions: abstract
T1 construct: made in house; host or cells: Pichia pastoris
Method: IC50 values on human MAOA and human MAOB were determined using the Amplex Red/horseradish peroxidase coupled assay. […] Measurements were performed using a ClarioStar plate reader (excitation 572 nm and emission 583 nm) (BMG Labtech). IC50 values were obtained by fitting the percentage of inhibition versus log(inhibitor concentration) using GraphPad software 7.0. The covalent modification of the flavin upon the reaction with the propargylamine-containing inhibitors was monitored spectrophotometrically using a diode array UV/visible spectrophotometer (Agilent Technologies). The reaction was started by adding a 5-fold molar excess of compound 9a to 20 μM protein in a volume of 100 μL of a purification buffer. The cofactor covalent modification was monitored over time following the shift of the enzyme-bound flavin (peaks at 370 and 456 nm) to 410 nm (ε410 = 23,500 M^–1 cm^–1) (Figure S10).

## C#CCN(C)Cc1ccc(Cn2nnc3c(Sc4nc5ccccc5o4)ncnc32)cc1 [Compound 9a, N-(4-((7-(Benzo[d]oxazol-2-ylthio)-3H-[1,2,3]triazolo[4,5-d]pyrimidin-3-yl)methyl)benzyl)-N-methylprop-2-yn-1-amine]
Human NOX2
  selectivity index NOX2/NOX1: 39
  selectivity index NOX2/NOX4: 74
  selectivity index NOX2/NOX5: 9
Human MAOB
  selectivity for MAOB over MAOA: 465 fold
